Like-named read-outs stand apart in the source and are kept apart here.
Key:
h5HT2a [1] = biological target: T1, h5HT2a (Homo sapiens, UniProt P28223); conditions: Ca2+ release, CHO-K1 h5HT2a, 0.1 nM-10 μM, 1 min
h5HT2a [2] = biological target: T1, h5HT2a; conditions: βarrestin2 recruitment, CHO-K1 h5HT2a, 0.1 nM-10 μM, 2 h, AUC

The chains behind the UniProt entries cited, without tags or fusion partners.
UniProt P28223, whole entry: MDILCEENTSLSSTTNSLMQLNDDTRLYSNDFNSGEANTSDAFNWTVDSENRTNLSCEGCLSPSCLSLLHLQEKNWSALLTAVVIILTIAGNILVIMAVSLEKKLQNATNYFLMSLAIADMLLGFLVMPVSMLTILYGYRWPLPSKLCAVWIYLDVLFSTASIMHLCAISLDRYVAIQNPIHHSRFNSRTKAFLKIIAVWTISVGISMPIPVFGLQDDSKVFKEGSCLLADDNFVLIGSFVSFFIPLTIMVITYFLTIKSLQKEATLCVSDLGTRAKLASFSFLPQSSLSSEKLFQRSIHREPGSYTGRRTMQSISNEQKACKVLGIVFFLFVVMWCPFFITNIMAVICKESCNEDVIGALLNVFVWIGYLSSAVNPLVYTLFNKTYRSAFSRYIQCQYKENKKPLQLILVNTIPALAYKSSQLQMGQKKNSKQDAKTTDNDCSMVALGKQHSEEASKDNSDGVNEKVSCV

CNCCc1c[nH]c2cccc(O)c12 [Norpsilocin]
EC50 (h5HT2a [1]): 72 nM | pEC50 ± S.E.M. (h5HT2a [1]): 7.1 ± 0.80 | EC50 (h5HT2a [2]): 2.4 nM | pEC50 ± S.E.M. (h5HT2a [2]): 8.6 ± 1.7
